Target: T1, plasma dipeptidylpeptidase IV (Mus musculus, UniProt P28843)
T1 construct: The blood samples were centrifuged at 6000 rpm for 2 minutes to separate plasma; from tissue; host or cells: plasma of male ICR mice (Charles River Laboratories Japan)
Experiment: Inhibition of plasma dipeptidylpeptidase IV activity in mice by oral administration
Type: in vivo
Conditions: male ICR mice, 0.1 mg/mL suspension at 10 mL/kg, 30 minutes after administration
Method: Each compound was suspended in 0.3% sodium carboxymethylcellulose to a concentration of 0.1 mg/mL. The preparation was orally administered to 8 weeks old male ICR mice (Charles River Laboratories Japan) at a dose of 10 mL/kg. Using an EDTA 2K-treated capillary tube, blood samples were collected from the tail vein before administration and 30 minutes after administration. The blood samples were centrifuged at 6000 rpm for 2 minutes to separate plasma. […] The inhibition was determined from the decrease in the enzymatic activity from the initial activity (% inhibition={(activity before administration−activity after administration)/(activity before administration)}×100).

By UniProt entry, the sequences of proteins in these tests, tags left out. Residues count along the entry.
UniProt P28843, 37-760 limits assumed: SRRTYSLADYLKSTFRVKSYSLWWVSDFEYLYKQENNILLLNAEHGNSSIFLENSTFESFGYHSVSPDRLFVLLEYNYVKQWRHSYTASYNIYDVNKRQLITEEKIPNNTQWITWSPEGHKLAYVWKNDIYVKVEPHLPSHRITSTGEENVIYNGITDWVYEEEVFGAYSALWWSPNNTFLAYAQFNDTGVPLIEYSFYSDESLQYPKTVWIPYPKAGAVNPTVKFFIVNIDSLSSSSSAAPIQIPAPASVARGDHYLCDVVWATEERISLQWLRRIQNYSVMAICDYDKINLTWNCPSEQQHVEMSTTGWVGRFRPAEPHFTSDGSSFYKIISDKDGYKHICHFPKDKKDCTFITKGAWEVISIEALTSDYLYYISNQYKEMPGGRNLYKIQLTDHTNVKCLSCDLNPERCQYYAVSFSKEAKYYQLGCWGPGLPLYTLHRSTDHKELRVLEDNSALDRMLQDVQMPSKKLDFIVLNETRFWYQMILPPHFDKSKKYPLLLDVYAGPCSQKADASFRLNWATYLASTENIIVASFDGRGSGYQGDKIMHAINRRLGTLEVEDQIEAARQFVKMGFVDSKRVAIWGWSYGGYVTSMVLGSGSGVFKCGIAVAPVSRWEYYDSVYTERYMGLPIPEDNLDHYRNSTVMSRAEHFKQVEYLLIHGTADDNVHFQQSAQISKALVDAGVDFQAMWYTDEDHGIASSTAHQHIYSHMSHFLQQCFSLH

- inhibition at 1 mg/kg: 81%
SMILES: N#C[C@@H]1CCCN1C(=O)CNC12CC3CC(CC(O)(C3)C1)C2 [Compound A, (2S)-1-[[(3-hydroxy-1-adamantyl)amino]acetyl]-2-cyanopyrrolidine, reference compound]
